Only a part is listed here, and it is no random draw. Activity calls are given as the source filed them. No rule for the calls is given here.
target: Eukaryotic translation initiation factor 4H (Homo sapiens) (UniProt Q15056); experiment: eIF4H binding inhibition – biochemical, uHTS, fluorescence polarization, translation initiation inhibitor project, primary screen (AID 2012); details: eIF4H fluorescence polarization binding assay; at 35 µM; hits give high values

**Q.** Which inhibition does the source give for N#Cc1ccc(C(=O)NCC2(N3CCCCC3)CCCCC2)cc1 here?
**A.** The inhibition was inactive: 7.1%.

**Q.** With CC(C)(C)OC(=O)N1CCC(N(C(=O)c2ccccc2)c2ccc(Cl)cc2)CC1 as the compound, how does the inhibition read?
**A.** Its inhibition is inactive: -1.3%.

**Q.** With CN(C)C1(CNC(=O)c2cccc(C#N)c2)CCCCC1 as the compound, how does the inhibition read?
**A.** The inhibition was inactive: -12.7%.

**Q.** Which inhibition does the source give for CCCN1CCC(Nc2cc(OC)cc(OC)c2)CC1 here?
**A.** Its inhibition is inactive: 40.9%.

**Q.** c1ccc(CN2CCC(Nc3ccccc3)CC2)cc1 was tested. Which inhibition did it give?
**A.** The inhibition was inactive: 5.5%.

**Q.** COc1ccc(C(=O)NCC2(N3CCOCC3)CCCCC2)cc1OC was tested. Which inhibition did it give?
**A.** The inhibition was inactive: -7.2%.

**Q.** For CCOC(=O)N1CCC(Nc2ccc(C)cc2)CC1, which inhibition is on record?
**A.** The inhibition was inactive: 3.6%.

**Q.** Which inhibition does the source give for N/C(=N\O)c1c(N)no[n+]1[O-] here?
**A.** Its inhibition is inactive: -6.7%.

**Q.** O=C(OC1CN2CCC1CC2)C1c2ccccc2C=Cc2ccccc21 (centres undefined) was tested. Which inhibition did it give?
**A.** Its inhibition is inactive: 12.5%.

**Q.** For CN1CCC(Nc2ccc(F)c(Cl)c2)CC1, which inhibition is on record?
**A.** The inhibition was inactive: 16.2%.

**Q.** CCOc1ncccc1C(=O)NCC1(N2CCOCC2)CCCCC1 was tested. Which inhibition did it give?
**A.** The inhibition was inactive: -6.8%.

**Q.** How did the inhibition turn out when O=C(O)C1(Nc2ccccc2)CCN(Cc2ccccc2)CC1 was run?
**A.** Its inhibition is inactive: 2.3%.

**Q.** With CC(C)(C)OC(=O)N1CCC(Nc2ccccc2)CC1 as the compound, how does the inhibition read?
**A.** The inhibition was inactive: -2.4%.

**Q.** Which inhibition does the source give for CCCOc1ccc(C(=O)NCC2(N(C)C)CCCCC2)cc1 here?
**A.** Its inhibition is inactive: -10.7%.

**Q.** How did the inhibition turn out when COc1cccc(C(=O)N(c2cc(C)cc(C)c2)C2CCN(C(=O)OC(C)(C)C)CC2)c1 was run?
**A.** The inhibition was inactive: -8.2%.

**Q.** COc1cc(OC)cc(C(=O)NCC2(N3CCOCC3)CCCCC2)c1 was tested. Which inhibition did it give?
**A.** The inhibition was inactive: 6.1%.

**Q.** CCC(CO)(C(=O)OC1CN2CCC1CC2)c1ccccc1 (centres undefined) was tested. Which inhibition did it give?
**A.** The inhibition was inactive: -7.1%.

**Q.** For CN1CCC(Nc2ccc(Cl)cc2)CC1, which inhibition is on record?
**A.** Its inhibition is inactive: -13.4%.

**Q.** CCCOc1ccc(C)cc1CN(CCCl)CCCl was tested. Which inhibition did it give?
**A.** The inhibition was active: 50%.

**Q.** How did the inhibition turn out when COc1cc(OC)cc(C(=O)NCC2(N3CCCCC3)CCCCC2)c1 was run?
**A.** Its inhibition is inactive: -6.8%.

**Q.** With Fc1ccccc1NC1CCN(Cc2ccccc2)CC1 as the compound, how does the inhibition read?
**A.** The inhibition was inactive: 5.3%.

**Q.** How did the inhibition turn out when CCN1CCC(Nc2cccc(F)c2)CC1 was run?
**A.** The inhibition was inactive: -0.8%.

**Q.** CN(C)c1ccc(C(=O)NCC2(N3CCCCC3)CCCCC2)cc1 was tested. Which inhibition did it give?
**A.** The inhibition was inactive: -1.2%.

**Q.** How did the inhibition turn out when CCOc1ccc(C)cc1CN(CCCl)CCCl was run?
**A.** Its inhibition is active: 60.4%.

**Q.** CCOC(=O)N1CCC(Nc2ccc(F)cc2)CC1 was tested. Which inhibition did it give?
**A.** Its inhibition is inactive: -1.7%.

**Q.** COc1ccc(NC2CCN(CCc3ccccc3)CC2)c(OC)c1 was tested. Which inhibition did it give?
**A.** Its inhibition is inactive: -2.7%.

**Q.** Which inhibition does the source give for O=C(NCC1(N2CCCCC2)CCCCC1)c1ccc(F)cc1 here?
**A.** The inhibition was inactive: -9.7%.

**Q.** Cc1ccc(OCC(C)C)c(CN(CCCl)CCCl)c1 was tested. Which inhibition did it give?
**A.** The inhibition was active: 59%.

**Q.** Which inhibition does the source give for CCOC(=O)N1CCC(Nc2cccc(C)c2)CC1 here?
**A.** The inhibition was inactive: -9.9%.

**Q.** With COc1cc(C(=O)NCC2(N(C)C)CCCCC2)ccc1OC(F)F as the compound, how does the inhibition read?
**A.** The inhibition was inactive: -9.3%.

**Q.** For COc1ccc(C(=O)NCC2(N3CCCCC3)CCCCC2)c(OC)c1OC, which inhibition is on record?
**A.** Its inhibition is inactive: -12.9%.

**Q.** CC(C)(C)OC(=O)N1CCC(N(C(=O)c2ccccc2)c2ccc(F)cc2)CC1 was tested. Which inhibition did it give?
**A.** The inhibition was inactive: -2%.

**Q.** For COc1ccc(C(=O)NCC2(N3CCCCC3)CCCCC2)cc1, which inhibition is on record?
**A.** The inhibition was inactive: 4.6%.

**Q.** How did the inhibition turn out when O=C(NCC1(N2CCCCC2)CCCCC1)c1ccc(=O)[nH]c1 was run?
**A.** Its inhibition is inactive: -1.9%.

**Q.** For CSc1ccccc1C(=O)NCC1(N2CCCCC2)CCCCC1, which inhibition is on record?
**A.** The inhibition was inactive: -0.6%.

**Q.** How did the inhibition turn out when Cc1cc(C)cc(N(C(=O)c2ccccc2)C2CCN(C(=O)OC(C)(C)C)CC2)c1 was run?
**A.** The inhibition was inactive: -3.6%.

**Q.** How did the inhibition turn out when O=C(NCC1(N2CCOCC2)CCCCC1)c1cc2ccccc2o1 was run?
**A.** Its inhibition is inactive: -2.4%.

**Q.** How did the inhibition turn out when N#CC1(Nc2ccccc2)CCN(Cc2ccccc2)CC1 was run?
**A.** The inhibition was inactive: 0.6%.

**Q.** Which inhibition does the source give for O=C(OC1CN2CCC1CC2)C1c2ccccc2Oc2ccccc21 (centres undefined) here?
**A.** The inhibition was inactive: -4.6%.

**Q.** For CCOC(=O)N1CCC(Nc2ccc(OC)cc2)CC1, which inhibition is on record?
**A.** The inhibition was inactive: -3.4%.

**Q.** For CC(C)c1ccc(NC2CCN(C(=O)OC(C)(C)C)CC2)cc1, which inhibition is on record?
**A.** Its inhibition is inactive: 8.8%.

**Q.** With CN(C)c1cccc(C(=O)NCC2(N3CCCCC3)CCCCC2)c1 as the compound, how does the inhibition read?
**A.** Its inhibition is inactive: 0.1%.

**Q.** How did the inhibition turn out when COc1ccc(CN(CCCl)CCCl)cc1Cl was run?
**A.** Its inhibition is inactive: 37.4%.

**Q.** With COc1cc(OC)c(C(=O)NCC2(N(C)C)CCCCC2)cc1OC as the compound, how does the inhibition read?
**A.** Its inhibition is inactive: -3.6%.

**Q.** For CCCOc1ccc(C(=O)NCC2(N(C)C)CCCCC2)cc1OC, which inhibition is on record?
**A.** The inhibition was inactive: 6.7%.

**Q.** For O=C(NCC1(N2CCCCC2)CCCCC1)c1ccc(OC(F)F)cc1, which inhibition is on record?
**A.** The inhibition was inactive: -9.4%.

**Q.** N#CC1(Nc2ccccc2)CCN(CCc2ccccc2)CC1 was tested. Which inhibition did it give?
**A.** The inhibition was inactive: -12%.

**Q.** Which inhibition does the source give for CCN1CCC(Nc2ccc(Cl)cc2)CC1 here?
**A.** The inhibition was inactive: -10.9%.

**Q.** For O=C(NCC1(N2CCCCC2)CCCCC1)c1cccc([N+](=O)[O-])c1, which inhibition is on record?
**A.** Its inhibition is inactive: -0.8%.

**Q.** How did the inhibition turn out when O=C(NCC1(N2CCCCC2)CCCCC1)c1cccc(C(F)(F)F)c1 was run?
**A.** Its inhibition is inactive: 3.3%.

**Q.** Which inhibition does the source give for O=C(NCC1(N2CCOCC2)CCCCC1)c1cc(=O)[nH]c2ccccc12 here?
**A.** The inhibition was inactive: 5.7%.

**Q.** Which inhibition does the source give for COc1cc(C(=O)NCC2(N3CCCCC3)CCCCC2)ccc1OC(F)F here?
**A.** The inhibition was inactive: 3%.

**Q.** With COc1ccc(NC2CCN(C(=O)OC(C)(C)C)CC2)cc1 as the compound, how does the inhibition read?
**A.** Its inhibition is inactive: 4.6%.

**Q.** With CN1CCN(CCOC(=O)C(O)(c2ccccc2)c2ccccc2)CC1 as the compound, how does the inhibition read?
**A.** Its inhibition is inactive: -8.9%.

Reference: PubChem BioAssay AID2012 (Sanford-Burnham Center for Chemical Genomics, 2009)
